This note sets out measurements from patent US20240398963A1 (priority 2021, published 2024).

The format of this data set is physicochemical. To be noted: 10 mM PBS buffer (pH=7.4), 37° C., 100 rpm shaker; free drug by HPLC, average release per day. On the procedure: The drug release and stability experiments were run using the test compounds. About 2.5±1.0 mg/mL (with regard to conjugate) solution of each test compound was prepared with 10 mM PBS buffer (pH=7.4) in Millipore Amicon® Ultra-0.5 ml 30 k Ultrafiltration centrifuge tube. The solution was kept swelling for 1 h at room temperature and then placed in a shaker at 100 rpm, 37° C. for continuous experiment. At the same time point of each day, samples were centrifuged at 10000 rpm for 1 h. The aliquot was transferred to HPLC vial for analysis. An 0.4 mL of 10 mM PBS buffer was added into the centrifuge tube and continue the experiment.
For the HPLC analysis at each time point, the peak areas of all relevant peaks from the chromatograms were retrieved and the concentration of free drug was calculated. Average release of free drug was calculated based on the sum of free drug and numbers of experiment days. The computing equation is as below.
The sample degradation rate was calculated based on the concentration and degree of substitution (NMR) for conjugated drug with regard to the initial starting point of the experiment (at t=0). The computing equation is as below.

For “Conjugate of HA and methyl (S)-2-amino-3-(4-(((2-((6αS,6βR,7S,8αS,8βS,11αR,12αS,12βS)-6β-fluoro-7-hydroxy-6α,8α,10,10-tetramethyl-4-oxo-1,2,4,6α,6β,7,8,8α,11α,12,12α,12β-dodecahydro-8βH-naphtho[2′,1′:4,5]indeno[1,2-d][1,3]dioxol-8β-yl)-2-oxoethoxy)carbonyl)oxy)phenyl)propanoate [Example 33]”, the Release rate is reported as 22.57 %/day.
